Numbering of substitutions follows the chain as printed.
B1: TM-46: anti-TMEM106B monoclonal antibody; CDR-H1-3 SEQ ID NO: 30, 72, 114; CDR-L1-3 SEQ ID NO: 153, 182, 216 (antibody, V domains shown)
VH: QVQLQQSGADLVKPGASVKISCKASGYAFSSFWMNWVKLRPGKGLEWIGQIYPGDGDTDYNGKFKDKATLTADTSSNTAYMQLSRLTSEDSAVYFCARGDGFSYFDYWGQGTILTVSS
VL: QIVLTQSPVIMSASPGERVTMTCCASSRVNYMHWYQQKSGSYPKRWIYDTSKLASGVPGRFSGSGSGTSYSLTISSMEAEDAATYYCQQWSSNPPTFGGGTKLEIK
B2: TM-6: anti-TMEM106B monoclonal antibody; CDR-H1-3 SEQ ID NO: 7, 40, 83; CDR-L1-3 SEQ ID NO: 125, 165, 189 (antibody, V domains shown)
VH: QVQLQQSGAELVKPGASVKLSCKASGYTFTEYTIHWVKQRSGQGLEWIGWFYPGSTYIDYNEKFKDKATLTADKSSSTVYLELSRLTSEDSAVYFCARHEEDYSNWFPFWGQGTLVTVSA
VL: DIQMSQSSSYLSVSLGGRVTITCKASDHINNWLAWYQQKPGNAPRLLISGATSLETGVPSRFSGSGSGKDYTLSITSLQTEDVATYYCQQYWSSPYTFGGGTKLEIK
B3: TM-34: anti-TMEM106B monoclonal antibody; CDR-H1-3 SEQ ID NO: 23, 65, 108; CDR-L1-3 SEQ ID NO: 147, 161, 211 (antibody, V domains shown)
VH: EVQLVESGGGLVKPGGSLKLSCAASGFSFSDSGMDWVRQAPEKGLEWFAYISSGSSTTHYADTVKGRFIISRDNAKNTLFLQMTSLRSEDTAMYYCVRRDGNYWYFDVWGTGTTVTVSS
VL: QIVLSQSPVILSASPGEKVTMTCRATSSVTYMHWYQLKPGSSPKPWIYATSNLASGVPARFSGSGSGTSYSLTISRVEAEDAATYYCQQWSSNPYTFGGGTKLEIK
B4: TM-2: anti-TMEM106B monoclonal antibody; CDR-H1-3 SEQ ID NO: 3, 36, 79; CDR-L1-3 SEQ ID NO: 121, 161, 185 (antibody, V domains shown)
VH: HIQLVQSGPELKKPGETVKISCKASGYTFTEYPMHWVKQAPGKGFRWMGMIYTNTGEPTYAAEFKGRFAFSLETSASTGYLQINNLKNEDSATYFCVTAGYWGQGTLVTVSA
VL: QIVLTQSPAILSASPGEKVTMTCRASSSVSYIHWFLQKPGSSPKPWIYATSNLASGVPFRFIGSGSGTSYSLTISGVEAEDSATYYCQQWSSNPSTFGAGTKLELK
B5: TM-14: anti-TMEM106B monoclonal antibody; CDR-H1-3 SEQ ID NO: 2, 48, 91; CDR-L1-3 SEQ ID NO: 132, 172, 196 (antibody, V domains shown)
VH: QVQLQQSGPELVRPGTSVKVSCKASGYAFTNYLIEWVKQRPGQGLEWIGVINPGGGNTDYSEKFKDKATLTADKSSNTAYIQLSSLTSEDSAVYFCARSPYSSYVGYAVDYWGQGTSVTVSS
VL: DIQMTQSPSSLSASLGERVSLTCRASQDIGSNLNWLQQEPDGTIKRLIYATSSLDSGVPKRFSGSRSGSDYSLTISSLESEDFVVYYCLQYASSPRTFGGGTRLEIK
B6: TM-51: anti-TMEM106B monoclonal antibody; CDR-H1-3 SEQ ID NO: 34, 76, 118; CDR-L1-3 SEQ ID NO: 158, 181, 221 (antibody, V domains shown)
VH: QVQLQQPGAELVKPGASVKLSCKASGYTFTTYWIDWVKQRPGQGLEWIGNMFPGSSRTNYNEKFKSRATLTVDTSSSTAYMQLSSLTSDDSAVYYCARKEGLWTYGYDGGAWFAYWGQGTLVTVSA
VL: DIVMSQSPSSLAVSVGEKVTMSCKSSQSLRNSRTRKNYLAWYQQKPGQSPKLLIYWASTRESGVPDRFTGSGSGTDFTLTISSVQAEDLAIYYCKQSYNLLTFGAGTKLELK
B7: TM-33: anti-TMEM106B monoclonal antibody; CDR-H1-3 SEQ ID NO: 22, 64, 107; CDR-L1-3 SEQ ID NO: 146, 179, 210 (antibody, V domains shown)
VH: EFQLQQSGPELVKPGASVKISCKASGYSFTDYNMNWVKQSNGKSLEWIGVINPNYGTTSYNQKFKGKATLTVDQSSSTAYMQLNSLTSEDSAVYYCASSYWGQGTLVTVSA
VL: DIVMTQSQKFMSTTVGDRVSITCKASQNVGTAVAWYQQKPGQSPKLLIYSASNRYTGVPDRFTGSGSGTDFTLTISNMQSEDLADYFCQQYSSYPYTFGGGTKLEIK
B8: TM-66: anti-TMEM106B monoclonal antibody; VH SEQ ID NO: 472, VL SEQ ID NO: 508 (antibody, V domains shown)
VH: EVMLVESGGALVEPGGSLKLSCAASGITFSNYAMSWIRQTPEKRLEWVATIGSVGSYTYYPDSVKGRFTISRDNARNTLYLQMSSLRSEDTAMYYCARQEGSSHFDYWGQGTTLTVSS
VL: DVVVTQTPPSLPVSFGDQVSISCRSSQSLVNSYGKTFLSWYLHKPGQSPQLLIYGISNRFSGVPDRFSGSGSGTVFTLKISTIKPEDLGMYYCLQGTHPPLTFGAGTKLEMK
modifications: Variable Heavy Chain -- TM-66; Variable Light Chain -- TM-66
B9: TM-77: anti-TMEM106B monoclonal antibody; VH SEQ ID NO: 482, VL SEQ ID NO: 517 (antibody, V domains shown)
VH: QIQLQQSGAELVRPGASVKLSCKASGYTFTDYEMHWVKQTPVHGLEWIGVIDPETGGTAYNQMFKGKATLTADKSSSTAYMDLRSLTSEDSAVYYCVKYGIEGYWGQGTTLTVSS
VL: DVVMTQIPLTLSVTLGQPASISCKSSQSLFHSNGKTYLNWLLQRPGQSPKLLIYMVSKLESGVPDRFSGSGSGTDFTLKISRVEAEDLGVYYCLQVTHFPLTFGAGTKLELK
modifications: Variable Heavy Chain -- TM-77; Variable Light Chain -- TM-77
B10: TM-31: anti-TMEM106B monoclonal antibody; CDR-H1-3 SEQ ID NO: 11, 62, 105; CDR-L1-3 SEQ ID NO: 127, 178, 209 (antibody, V domains shown)
VH: QVQLQQSGAELAKPGASVKVSCKASGYTFISYWMNWVKQRPGQGLEWIGYINPTSGYTRYNQKFKDKATLTADKSSSTAYMQLSSLTYEDSAVYYCARSPPTVVLIGYFDYWGQGTTLTVSS
VL: DIKMTQSPSSMYASLGERVTFTCKASQDINSYLSWFQQKPGKSPKTLIYRGNGLVDGVPSRFSGSGSGQDYSLTISSLEYEDMGIYYCLQYDEFPFTFASGTKLEIK
B11: TM-56: anti-TMEM106B monoclonal antibody; VH SEQ ID NO: 465, VL SEQ ID NO: 501 (antibody, V domains shown)
VH: QVHLQQSGAELAKPGASVKLSCKASGYTFTSYWMHWVKQRPGQGLEWIGYINPSSGYSKYNQRFKDKATLTADKSSTTAYMHLSSLTYADSAVYYCTREGGSISDWYFDVWGTGTTVTVSS
VL: DIEMTQAAPSVPVTPGESVSISCRSSKSLLQNNGNTYLYWFLQRPGQPPQLLIYRMSNLASGVPDRFSGSGSGTAFTLRISRVEAEDVGVYYCMQHLEYPYTFGGGTKLEIK
modifications: Variable Heavy Chain -- TM-56; Variable Light Chain -- TM-56
B12: TM-39: anti-TMEM106B monoclonal antibody; CDR-H1-3 SEQ ID NO: 26, 68, 111; CDR-L1-3 SEQ ID NO: 150, 180, 213 (antibody, V domains shown)
VH: HVQRQQSGTELAKPGASVKLSCKTSGYTFTDYWMHWIKQRPGQGLEWIGFINPSSGYTKYNQNFKDKATLTADKSSSTAYMQLSSLTYEDSAVFYCAREAGSISDWYFDVWGTGTTVTVSS
VL: B11 VL with E3V, V11I, S28T, Q31N, N32S, E98D, K108Q
B13: TM-85: anti-TMEM106B monoclonal antibody; VH SEQ ID NO: 490, VL SEQ ID NO: 525 (antibody, V domains shown)
VH: QVQLQQPGAELVRAGTSVKLSCKASGYTFIGYWMHWVKQRPGRGLEWIGRIDPYSGDTRYNEKFKNKATLTVDKPSSTAYMQLSSLTSEDSAVYYCARYGLGHAMDYWGQGTSVTVSS
VL: DIAMSQSQKFMSTSVGDRVSVTCKASQNVGTNVAWYQQKPGQSPKALIYSASYRYSGVPDRFTGSGSGTDFTLTISNVQSEDLAEYFCQQYNSYPLTFGAGTKLEMK
modifications: Variable Heavy Chain -- TM-85; Variable Light Chain -- TM-85
B14: TM-69: anti-TMEM106B monoclonal antibody; VH SEQ ID NO: 474, VL SEQ ID NO: 510 (antibody, V domains shown)
VH: QVQLKESGPDLVQPSQTLSLTCTVSGFSFTSYGVHWVRQPPGKGLEWVGIMGWDDKKYYNSALKSRLSISRDTSKNQVFLKLSSLQTEDTAMYYCTREAGPYGMDYWGQGTSVTVSS
VL: DVVMTQTPLSLPVSLGDQASISCRSSQSLVHSNGNTYLHWYLQKPGQSPKLLIYKVSNRFSGVPDRFSGSGSGTDFTLKISRVEAEDLGVYFCSQNTHVPLTFGAGTKLELK
modifications: Variable Heavy Chain -- TM-69; Variable Light Chain -- TM-69
B15: TM-27: anti-TMEM106B monoclonal antibody; CDR-H1-3 SEQ ID NO: 2, 58, 101; CDR-L1-3 SEQ ID NO: 141, 177, 206 (antibody, V domains shown)
VH: QVQLQQSGAELVRPGTSVKVSCKASGYALTNYLIEWVKQRPGQGLEWIGVINPGSGSTKYNEKFKGKATLTADKSSSTAYMQLSSLTSEDSAVYFCARIIYDHDWYFDVWGTGTTVTVSS
VL: QIVLTQSPAIMSASPGEKVTISCSASSSISYMYWYQQKPGSSPKPWIYRTSTLASGVPARFSGSGSGTSYSLTISSMEAEDAATYYCQQYHSYPRTFGGGTKLEIK

Chains of the proteins cited; added tags and fusions are not shown. Lines headed by an entry give the natural chain unless they say otherwise; changes in a name come on top. Residues count along the entry.
UniProt Q9NUM4, 122-210: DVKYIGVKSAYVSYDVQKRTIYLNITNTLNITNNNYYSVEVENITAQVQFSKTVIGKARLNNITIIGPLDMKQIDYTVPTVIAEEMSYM

Biological target: GST-TMEM106B (truncated, comprising amino acids 122-210 of SEQ ID NO:1) (Homo sapiens, UniProt Q9NUM4)
Assay: Pre-mix epitope binning of anti-TMEM106B antibodies (Carterra / Lake Pharma)
Parameters: key: Non-binder: an anti-TMEM106B antibody that was not capable of binding to the GST-TMEM106B polypeptide fusion used in these binning experiments (assigned bin 5)
Settings: Non-binder: not capable of binding the GST-TMEM106B fusion (assigned bin 5)

| Molecule | Binding Community/Bin |
| --- | --- |
| B1 | Non-binder |
| B2 | Non-binder |
| B3 | Non-binder |
| B4 | Non-binder |
| B5 | Non-binder |
| B6 | Non-binder |
| B7 | Non-binder |
| B8 | Non-binder |
| B9 | Non-binder |
| B10 | Non-binder |
| B11 | Non-binder |
| B12 | Non-binder |
| B13 | Non-binder |
| B14 | Non-binder |
| B15 | Non-binder |
